Data taken from PubChem BioAssay AID602440 (Sanford-Burnham Center for Chemical Genomics, 2012).
The entries are a selection whose mix differs from that of the whole data set. Active and inactive are the calls of the source. Cut-off read from the data, not from the text of the source: active = inhibition mostly above about 40% (no sharp cut-off); inactive = mostly below about 27%.

The chains behind the UniProt entries cited, without tags or fusion partners.
UniProt Q96LD8, whole entry: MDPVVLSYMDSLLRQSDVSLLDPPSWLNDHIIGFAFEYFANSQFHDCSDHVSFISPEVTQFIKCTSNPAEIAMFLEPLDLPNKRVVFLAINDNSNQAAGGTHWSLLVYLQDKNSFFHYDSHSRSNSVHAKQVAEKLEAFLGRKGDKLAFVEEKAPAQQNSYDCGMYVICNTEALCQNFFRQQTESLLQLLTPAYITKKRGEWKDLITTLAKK

What follows are compounds tested against Sentrin-specific protease 8 (Homo sapiens) (UniProt Q96LD8) (assay: blockers of SENP8 deneddylase activity – biochemical, fluorescence, Nedd8 protein substrate, uHTS, primary screen (AID 602440)). Conditions: recombinant SENP8, Nedd8 substrate fluorescence; at 20 µM; stronger effect = higher value.

Row | Compound | inhibition
1 | CCC(=O)N(c1ccccc1)C1(COC)CCN(CCc2cccs2)CC1 | inactive: 2.8%
2 | CCC(=O)N(c1ccccc1)C1(COC)CCN(CCn2nnn(CC)c2=O)CC1 | inactive: 4.4%
